Tested on: HT-29 cells
Assay: WST-1 cell growth/viability assay, HT-29
Assay type: cell-based, human
Details: HT-29, 72 hours
Procedure: Indicated concentrations of drugs were added to wells one day after seeding. […] Cell proliferation was quantitated by measuring 450 nm absorbance and 600 nm as a background. All assays were performed in triplicate. […] The minimal combination index […] for each cell line was obtained from the isobologram parameters.

In the case of O=c1[nH]c(=O)n([C@H]2C[C@H](O)[C@@H](CO)O2)cc1F [5-FUdR, 5-fluoro-2′-deoxyuridine], the “synergy with hmUdR” value is reported as “acted synergistically”.
